Results as given in article PMC4527783 (PLoS ONE, 2015).

Tested on: NOP receptor (G protein vs β-arrestin 2)
Assay: Bias factor, NOP/G-protein vs NOP/arrestin
Parameters: species or system human
Conditions: log10 units, N/OFQ as standard unbiased ligand, G protein minus β-arrestin 2; at least 5 independent Emax/EC50 values; 3-parameter fit, unit slope; * p < 0.05

O=C1NCN(c2ccccc2)C12CCN(C1Cc3cccc4cccc1c34)CC2 (stereo not shown)
bias factor ± sem: 1.07 ^·
